Experimental data: US20200024223A1, “CRYSTALLINE SALTS OF (4S,4AS,5AR,12AS)-4-DIMETHYLAMINO-3,10,12,12A-TETRAHYDROXY-7-[(METHOXY(METHYL)AMINO)-METHYL]-1,11-DIOXO-1,4,4A,5,5A,6,11,12A-OCTAHYDRO-NAPHTHACENE-2-CARBOXYLIC ACID AMIDE AND METHODS OF USING THE SAME” (priority 2011, published 2020)

Experiments:
E. cloacae = assay: In vitro MIC testing, antibacterial spectrum of activity; conditions: fold higher than the other tetracyclines
E. faecium = assay: as above; assay type: cell-based; conditions: vancomycin-resistant E. faecium; fold higher than minocycline

## CON(C)Cc1ccc(O)c2c1C[C@H]1C[C@H]3[C@H](N(C)C)C(O)=C(C(N)=O)C(=O)[C@@]3(O)C(O)=C1C2=O [The Active, (4S,4aS,5aR,12aS)-4-dimethylamino-3,10,12,12a-tetrahydroxy-7-[(methoxy(methyl)amino)-methyl]-1,11-dioxo-1,4,4a,5,5a,6,11,12a-octahydro-naphthacene-2-carboxylic acid amide]
E. cloacae
  MIC50 relative to those of the other tetracyclines: 16- to 32 fold
E. faecium
  MIC50 relative to that of minocycline: 8 fold
